ChEMBL document CHEMBL3826914, “Selective photodepletion of malignant T cells in extracorporeal photopheresis with selenorhodamine photosensitizers” (Bioorg Med Chem, 2016)

Experiment: Phototoxicity SEB-stimulated human CD25 deficient CD3 positive cells co-cultured with GFP expressing human HUT78 cells assessed as cell survival at 7.5 x 10^-8 M preincubated 20 mins in photosensitizer media followed by growth in photosensitizer-free media for 30 mins measured 18 hrs after exposure to 5 J/cm2 irradiation by FACS analysis

Structure (SMILES)	Survival [%]
CN1CCC(C)(C)c2cc3c(cc21)[Se]c1cc2c(cc1=C3c1ccc(C(=S)N3CCCCC3)s1)C(C)(C)CC[N+]=2C.[Cl-]	11.1
C[N+]1=c2cc3c(cc2C(C)(C)CC1)=C(c1ccc(C(=S)N2CCCCC2)s1)c1cc2c4c(c1[Se]3)CCCN4CCC2.[Cl-]	8.7
C[N+]1=c2cc3c(cc2C(C)(C)CC1)=C(c1ccc(C(=O)N2CCCCC2)s1)c1cc2c4c(c1[Se]3)CCCN4CCC2.[Cl-]	13.9
O=C(c1ccc(C2=c3cc4c5c(c3[Se]c3c2cc2c6c3CCCN6CCC2)CCC[N+]=5CCC4)s1)N1CCCCC1.[Cl-]	83.4
